# From PubChem BioAssay AID1463 (National Center for Advancing Translational Sciences (NCATS), 2008)
# This is a selection; strong and weak results do not stand in their true shares. Inconclusive results are not listed. The source made the active and inactive calls. Calls follow the shape of the dose curve; as a rule, active = well fitted curve in the direction sought with a large enough effect; inconclusive = small, poorly fitted or top-dose-only effect; inactive = flat fitted curve, though single readings scatter.
# Assay: Counterscreen qHTS for Inhibitors of Tau Fibril Formation, Fluorescence Polarization; also: nearly all actives have a fitted effect of over 55% in size
# Details: tau K18 P301L (four-repeat tau fragment) Alexa594 fluorescence, heparin fibrillization; at 57.7 µM (top of the series)
# % is scaled to controls: 0 for no effect and ±100 for the full control effect.
row,SMILES,"activity change, negative = decrease"
1,CN(CCCl)CCCl,inactive: -9.34%
